# Binding of CDR-mutated scFvs to a peptide of the spike HR2 region

Reference: Engelhart et al. 2022, doi:10.1038/s41597-022-01779-4. File: FLAb, binding data.

Target peptide (SARS-CoV-2 spike, HR2 region): PDVDLGDISGINAS

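The starting antibody came from a phage panning campaign against this peptide. In library AAYL50, one, two or three CDR residues were substituted; doubles and triples were drawn at random. The scFvs were displayed on barcoded MATa yeast, the peptide on MATalpha yeast. After mating in shaken culture at 30 °C for 16 h, diploids were selected and their barcode pairs sequenced. Each replicate has its own calibration line, from reference interactions of the BCL2 family. Mating was done three times.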

Ab-14 is the parent antibody, in scFv form: VH, then a 15-residue (Gly4Ser)3 linker, then VL. The heavy chain is unchanged in all variants.
VH: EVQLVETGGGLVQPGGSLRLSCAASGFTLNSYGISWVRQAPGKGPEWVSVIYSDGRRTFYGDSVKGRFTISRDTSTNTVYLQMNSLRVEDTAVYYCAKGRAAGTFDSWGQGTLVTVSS
VL: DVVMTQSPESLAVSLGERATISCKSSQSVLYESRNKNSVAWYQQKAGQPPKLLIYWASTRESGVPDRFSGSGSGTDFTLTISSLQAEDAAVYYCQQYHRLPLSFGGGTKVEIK

Each variant's VL is given in full.
The read-out is the apparent dissociation constant on a log10 scale (nM): the lower, the stronger.
"ND" marks a missing value. The strain was present, yet no cells mated with the target were sequenced in that replicate, which points to weak or no binding.
Empty control strains, which show no peptide, gave a signal in 18% of pairings with library AAYL50; the median was 4.19 and 95% of these signals were weaker than 2.99. No background was subtracted. Also given: how often the same scFv was detected with the empty control strains.

For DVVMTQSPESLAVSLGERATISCKSSQSDLYESRNKNSVAWYQQKAGQPPKLLIYWMSTREPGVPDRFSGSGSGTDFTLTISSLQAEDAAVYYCQQYHRLPLSFGGGTKVEIK, the assay gave 1.05, 1.08, 0.97 (controls 0 of 9).
For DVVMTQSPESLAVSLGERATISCKSSQSVLYETRNKNSVAWYQQKAGQPPKLLIYKALTRESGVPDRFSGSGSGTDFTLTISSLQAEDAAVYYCQQYHRLPLSFGGGTKVEIK, the assay gave 2.31, 2.01, 2.47 (controls 1 of 9).
For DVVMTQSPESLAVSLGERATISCKSSQSRLYESRNKNSVAWYQQKAGQPPKLLIYWASTREYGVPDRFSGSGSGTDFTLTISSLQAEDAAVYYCRQYHRLPLSFGGGTKVEIK, the assay gave 2.35, 2.30, 2.10 (controls 1 of 9).
For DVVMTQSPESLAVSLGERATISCKSSQSVLYESVNKNSVAWYQQKAGQPPKLLIYWASTRESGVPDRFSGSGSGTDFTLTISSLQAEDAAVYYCQQFHRQPLSFGGGTKVEIK, the assay gave ND, ND, ND (controls 0 of 9).
For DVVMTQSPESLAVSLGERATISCKSSQSVLYESRNKNSVRWYQQKAGQPPKLLIYWGSTRESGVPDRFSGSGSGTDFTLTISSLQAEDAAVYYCQMYHRLPLSFGGGTKVEIK, the assay gave ND, ND, ND (controls 2 of 9).
For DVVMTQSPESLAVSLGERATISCKSSQSVLKESRNKNSEAWYQQKAGQPPKLLIYWASTRESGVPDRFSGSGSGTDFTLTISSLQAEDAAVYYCQQYHRVPLSFGGGTKVEIK, the assay gave ND, ND, ND (controls 0 of 9).
For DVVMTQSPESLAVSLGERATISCQSSQWVLYESRNLNSVAWYQQKAGQPPKLLIYWASTRESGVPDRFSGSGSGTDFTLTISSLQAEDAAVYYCQQYHRLPLSFGGGTKVEIK, the assay gave 1.85, 2.36, 1.93 (controls 1 of 9).
For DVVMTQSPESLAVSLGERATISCKQPQSVLYESRNKNSVAWYQQKAGQPPKLLIYWASTRESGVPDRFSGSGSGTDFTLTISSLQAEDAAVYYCQNYHRLPLSFGGGTKVEIK, the assay gave 0.90, 0.80, 0.96 (controls 2 of 9).
For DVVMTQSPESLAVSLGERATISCKSSQSVLYESRDKNSVAWYQQKAGQPPKLLIYWASTRECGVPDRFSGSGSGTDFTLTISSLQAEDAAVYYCQQYHRLPLSFGGGTKVEIK, the assay gave 1.04, 1.27, 1.23 (controls 3 of 9).
For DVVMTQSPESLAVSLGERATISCKSDQSVQYESRNKNSVAWYQQKAGQPPKLLIYWASTRWSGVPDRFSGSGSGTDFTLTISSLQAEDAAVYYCQQYHRLPLSFGGGTKVEIK, the assay gave 1.26, 1.29, 1.25 (controls 1 of 9).
For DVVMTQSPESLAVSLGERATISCKSSYSVLYESVNKNSEAWYQQKAGQPPKLLIYWASTRESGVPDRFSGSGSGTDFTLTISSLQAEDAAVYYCQQYHRLPLSFGGGTKVEIK, the assay gave ND, ND, ND (controls 0 of 9).
For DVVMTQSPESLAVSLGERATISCKSSSSVLYESRNKMSVAWYQQKAGQPPKLLIYWASTRDSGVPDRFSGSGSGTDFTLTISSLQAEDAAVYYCQQYHRLPLSFGGGTKVEIK, the assay gave 2.31, 1.78, ND (controls 0 of 9).
For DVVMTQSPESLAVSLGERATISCKSSCSVLYESRNKNSVMWYQQKAGQPPKLLIYWASTRESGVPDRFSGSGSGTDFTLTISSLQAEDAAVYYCQQYHRLLLSFGGGTKVEIK, the assay gave 5.41, 3.44, 5.73 (controls 4 of 9).
For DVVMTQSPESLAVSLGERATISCKSSQSFLYESRNKNSVAWYQQKAGQPPKLLIYWASTRESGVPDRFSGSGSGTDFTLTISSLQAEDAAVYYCSQDHRLPLSFGGGTKVEIK, the assay gave ND, ND, ND (controls 2 of 9).
For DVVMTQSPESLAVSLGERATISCKSSQSVLYESRQKNSEAWYQQKAGQPPKLLIYWASTRESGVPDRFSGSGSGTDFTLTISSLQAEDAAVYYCQQIHRLPLSFGGGTKVEIK, the assay gave ND, ND, ND (controls 0 of 9).
For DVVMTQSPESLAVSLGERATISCKSSISVLTESRNKNSVAWYQQKAGQPPKLLIYWASTRESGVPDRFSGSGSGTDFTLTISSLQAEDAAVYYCQQYHRLPLSFGGGTKVEIK, the assay gave 0.45, 0.72, 0.60 (controls 1 of 9).
For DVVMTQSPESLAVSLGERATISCKSSQSVLDESRNKNSVAWYQQKAGQPPKLLIYGASTRESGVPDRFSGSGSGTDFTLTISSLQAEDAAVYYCQQHHRLPLSFGGGTKVEIK, the assay gave 0.17, 0.48, 0.28 (controls 4 of 9).

Extract of 2 entries:

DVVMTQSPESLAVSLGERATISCKSSQSVLDESRNKNSVAWYQQKAGQPPKLLIYGASTRESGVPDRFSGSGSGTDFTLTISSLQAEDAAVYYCQQHHRLPLSFGGGTKVEIK: 0.17, 0.48, 0.28 (controls 4 of 9).
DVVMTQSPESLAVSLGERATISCKSSQSVLYESRQKNSEAWYQQKAGQPPKLLIYWASTRESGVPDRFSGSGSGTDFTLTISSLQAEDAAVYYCQQIHRLPLSFGGGTKVEIK: ND, ND, ND (controls 0 of 9).